Experimental findings from PMC9937529, “Mechanism of activation and biased signaling in complement receptor C5aR1” (Cell Research, 2023) are described below.

Common to all, as to format: cell-based
One experiment deals with T1, C5aR1-WT (Homo sapiens, UniProt P21730).
T1 construct: expressed in transfected cells; host or cells: HEK293
T1 sequence (P21730 1-350): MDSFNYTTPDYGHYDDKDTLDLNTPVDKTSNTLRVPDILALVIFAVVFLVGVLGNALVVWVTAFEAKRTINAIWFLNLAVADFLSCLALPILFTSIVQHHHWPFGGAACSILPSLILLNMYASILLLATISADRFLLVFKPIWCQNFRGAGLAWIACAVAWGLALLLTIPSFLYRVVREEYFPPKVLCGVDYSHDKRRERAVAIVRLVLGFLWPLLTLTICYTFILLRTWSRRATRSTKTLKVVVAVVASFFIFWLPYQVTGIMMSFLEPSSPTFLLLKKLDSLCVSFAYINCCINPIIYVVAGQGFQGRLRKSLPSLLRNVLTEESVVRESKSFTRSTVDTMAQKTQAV
Put plainly: BRET assay measuring β-arrestin 2 recruitment. The following applies: HEK293, BRET, mean±SEM. As for the experimental part: Briefly, HEK293 cells were transiently transfected with C5aR1-Nluc and mVenus-β-arrestin 2 or C5aR2-mVenus and Nluc-β-arrestin 2 constructs using PEI transfection reagent (YEASEN, 40816ES02) according to the manufacturer’s instruction. At 24 h post transfection, the cells were gently detached and seeded (100,000/well) onto 96-well white plates in DMEM containing 5% FBS. On the next day, cells were washed once with Phosphate Buffered Saline (PBS) and incubated in HBSS containing 20 mM HEPES, pH 7.4, with coelenterazine h (5 μM, YEASEN, 40906ES02) for 1 h (37 °C, 5% CO2). […] We carried out the nonlinear regression (curve fit) dose-response function in GraphPad Prism 7 to yield the values of Emax and EC50.

The next experiment concerns the target T2, C5aR1 E1995.35A (Homo sapiens, UniProt P21730, E199A).
T2 construct: expressed in transfected cells; host or cells: HEK293
T2 sequence (P21730 1-350 E199A): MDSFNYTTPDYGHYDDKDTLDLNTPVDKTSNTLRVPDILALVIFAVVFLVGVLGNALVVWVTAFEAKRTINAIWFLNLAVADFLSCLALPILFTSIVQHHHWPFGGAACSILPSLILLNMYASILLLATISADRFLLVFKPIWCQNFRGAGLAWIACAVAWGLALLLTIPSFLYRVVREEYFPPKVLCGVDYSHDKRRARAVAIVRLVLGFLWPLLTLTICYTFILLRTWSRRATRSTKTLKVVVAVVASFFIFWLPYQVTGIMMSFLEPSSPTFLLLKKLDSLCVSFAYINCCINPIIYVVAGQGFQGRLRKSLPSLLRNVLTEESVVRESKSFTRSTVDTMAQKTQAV
Put plainly: BRET β-arrestin 2 recruitment. The following applies: HEK293, BRET, mean±SEM, n=3, read-out: EC50, β-arrestin2 recruitment. The method, then: (§1) The C5a-mediated β-arrestin 2 recruitment to C5aR1 and C5aR2, respectively, was measured using BRET-based assay as previously described.[36],[61],[62] Briefly, HEK293 cells were transiently transfected with C5aR1-Nluc and mVenus-β-arrestin 2 or C5aR2-mVenus and Nluc-β-arrestin 2 constructs using PEI transfection reagent (YEASEN, 40816ES02) according to the manufacturer’s instruction. At 24 h post transfection, the cells were gently detached and seeded (100,000/well) onto 96-well white plates in DMEM containing 5% FBS. On the next day, cells were washed once with Phosphate Buffered Saline (PBS) and incubated in HBSS containing 20 mM HEPES, pH 7.4, with coelenterazine h (5 μM, YEASEN, 40906ES02) for 1 h (37 °C, 5% CO2). The baseline BRET light emissions (460–485 nm and 520–545 nm) were monitored by the Synergy H1 microplate reader (BioTek). After the incubation of different diluted concentrations of agonist with or without antagonist for 10 min, the second BRET light emissions were measured and the ligand-induced BRET ratio was calculated by subtracting the acceptor (mVenus, 520–545 nm) over donor (Nluc, 460–485 nm) emission ratio of the vehicle-treated wells from that of the ligand-treated wells. We carried out the nonlinear regression (curve fit) dose-response function in GraphPad Prism 7 to yield the values of Emax and EC50.

A further experiment has as its target T3, C5aR1 I912.59A (Homo sapiens, UniProt P21730, I91A).
T3 construct: expressed in transfected cells; host or cells: HEK293
T3 sequence (P21730 1-350 I91A): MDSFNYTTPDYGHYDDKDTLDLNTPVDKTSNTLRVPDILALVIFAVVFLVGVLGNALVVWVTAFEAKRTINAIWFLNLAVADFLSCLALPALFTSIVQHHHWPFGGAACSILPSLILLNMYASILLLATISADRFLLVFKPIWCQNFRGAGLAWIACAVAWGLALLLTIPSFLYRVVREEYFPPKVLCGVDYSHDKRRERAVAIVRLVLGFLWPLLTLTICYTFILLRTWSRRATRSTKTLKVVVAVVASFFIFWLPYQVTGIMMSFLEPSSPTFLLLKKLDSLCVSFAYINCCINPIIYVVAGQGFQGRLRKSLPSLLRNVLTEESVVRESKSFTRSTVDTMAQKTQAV
Put plainly: BRET β-arrestin 2 recruitment. Particulars: HEK293, BRET, mean±SEM, n=3, Table S3, read-out: EC50, β-arrestin2 recruitment. The method, then:
as §1

The target of a further experiment is T4, C5aR1 R1754.64A (Homo sapiens, UniProt P21730, R175A).
T4 construct: expressed in transfected cells; host or cells: HEK293
T4 sequence (P21730 1-350 R175A): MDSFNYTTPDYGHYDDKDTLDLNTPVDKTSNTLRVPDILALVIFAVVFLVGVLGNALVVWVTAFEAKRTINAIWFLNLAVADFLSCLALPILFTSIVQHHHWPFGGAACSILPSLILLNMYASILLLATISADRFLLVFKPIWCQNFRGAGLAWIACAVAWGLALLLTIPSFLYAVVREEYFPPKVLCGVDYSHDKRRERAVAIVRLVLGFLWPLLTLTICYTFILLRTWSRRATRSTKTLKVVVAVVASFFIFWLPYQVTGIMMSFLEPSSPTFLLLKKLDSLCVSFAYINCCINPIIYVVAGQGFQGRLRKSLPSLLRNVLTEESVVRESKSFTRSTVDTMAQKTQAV
Put plainly: BRET β-arrestin 2 recruitment. Particulars: HEK293, BRET, mean±SEM, n=3, read-out: EC50, β-arrestin2 recruitment. As for the experimental part: as §1

Where two headings read alike, the source gives them in different places.

B1: C5a: 74-amino-acid complement fragment, endogenous agonist; recombinant human C5a, free cysteine replaced by arginine (protein)
chain: TLQKKIEEIAAKYKHSVVKKCCYDGARVNNDETCEQRAARISLGPRCIKAFTECCVVASQLRANISHKDMQLGR
modifications: three intramolecular disulfides; non-glycosylated (E. coli); Trx-His6 tag removed with TEV
What is called EC50 is the midpoint of the concentration-response curve. B1: the EC50 was determined as 14.8 ± 2.76 nM with C5aR1-WT (C5aR1-WT, agonist 10 min, n=6, Table S3, read-out: EC50, β-arrestin2 recruitment); 40 ± 10 nM with C5aR1-WT (C5aR1 wild type, n=3, Table S5, read-out: EC50, β-arrestin2 recruitment); 38.3 ± 7.94 nM with C5aR1 E1995.35A; 23.8 ± 4.36 nM in the experiment with C5aR1 I912.59A; 47.8 ± 9.15 nM in the experiment with C5aR1 R1754.64A.
